# From patent US10117919B2, “Methods and materials for generating CD8+ T cells having the ability to recognize cancer cells expressing a HER2/neu polypeptide” (Mayo Foundation for Medical Education and Research, priority 2012, dated 2018)
# Legend:
# immunoproteasome = test: In vitro cleavage of HER-2/neu 19-mer by purified immunoproteasome; assay type: biochemical; design: key: The symbol (+) indicates the polypeptide was produced by the respective enzyme in an in vitro assay; The symbol (-) indicates lack of peptide detection in an in vitro assay in samples containing the respective enzyme; settings: from HER-2/neu 19-mer (364-382)
# 20S proteasome = test: In vitro cleavage of HER-2/neu 19-mer by purified 20S proteasome; assay type: biochemical; design: key: The symbol (+) indicates the polypeptide was produced by the respective enzyme in an in vitro assay; The symbol (-) indicates lack of peptide detection in an in vitro assay in samples containing the respective enzyme; settings: from HER-2/neu 19-mer (364-382)
# [1] = test system: 20S proteasome and immunoproteasome; test: Processing of longer HER-2/neu polypeptides (19-mer, 23-mer) treated with the proteasomes; assay type: biochemical; settings: 19-mer FAGCKKIFGSLAFLPESFD as substrate
# [2] = test system: target cells pulsed with polypeptide; test: IFN-γ ELIspot of polypeptide-generated CD8+ T cell lines against polypeptide-pulsed target cells; assay type: cell-based, human
smiles,measurement,setting,value
CC[C@H](C)[C@H](NC(=O)[C@@H](N)CCCCN)C(=O)N[C@@H](Cc1ccccc1)C(=O)NCC(=O)N[C@@H](CO)C(=O)N[C@@H](CC(C)C)C(=O)N[C@@H](C)C(=O)N[C@@H](Cc1ccccc1)C(=O)N[C@@H](CC(C)C)C(=O)O [reference compound],Peptide generated by immunoproteasome,immunoproteasome,-
same,Peptide generated by proteasome,20S proteasome,-
same,Processing by purified 20S proteasome and immunoproteasome,[1],did not reveal processing of this polypeptide
same,Recognition of polypeptide-pulsed target cells by T cells generated with the polypeptide,[2],recognized target cells pulsed with p369-377 polypeptide and target cells pulsed with p373-382
